Tested on: xenograft nude mice models (triple-negative breast cancer, pancreatic, liver, colon cancer)
Assay: In vivo metastasis / stage IV tumor studies in xenograft nude mice versus standard drugs

“Herceptin: current treatment standard drug, Target HER2 receptors” was tested, and the Toxicity (mouse, in vivo) was “Hematological”, the mortality (mouse, in vivo) was 60% and the mortality (treating stage IV cancer) was 60%.
